Read-out in experiment [1]: Urokinase-type plasminogen activator receptor (uPAR), PLAUR (gene 5329)
Kind of experiment: BSK_4H_uPAR: BioMAP Diversity Plus: 4H Assay for Urokinase-type plasminogen activator receptor (uPAR) Biomarker Activity (AID 2283030). Particulars: actives raise or lower the signal; primary human endothelial cells (HUVEC). The method in brief:
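HUVEC, 24 h post-dose; uPAR by ELISA; bidirectional fit vs DMSO baseline.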

Protein sequences, listed by entry. Tags and fused reporters are not part of them.
UniProt P35968, whole entry, looked up: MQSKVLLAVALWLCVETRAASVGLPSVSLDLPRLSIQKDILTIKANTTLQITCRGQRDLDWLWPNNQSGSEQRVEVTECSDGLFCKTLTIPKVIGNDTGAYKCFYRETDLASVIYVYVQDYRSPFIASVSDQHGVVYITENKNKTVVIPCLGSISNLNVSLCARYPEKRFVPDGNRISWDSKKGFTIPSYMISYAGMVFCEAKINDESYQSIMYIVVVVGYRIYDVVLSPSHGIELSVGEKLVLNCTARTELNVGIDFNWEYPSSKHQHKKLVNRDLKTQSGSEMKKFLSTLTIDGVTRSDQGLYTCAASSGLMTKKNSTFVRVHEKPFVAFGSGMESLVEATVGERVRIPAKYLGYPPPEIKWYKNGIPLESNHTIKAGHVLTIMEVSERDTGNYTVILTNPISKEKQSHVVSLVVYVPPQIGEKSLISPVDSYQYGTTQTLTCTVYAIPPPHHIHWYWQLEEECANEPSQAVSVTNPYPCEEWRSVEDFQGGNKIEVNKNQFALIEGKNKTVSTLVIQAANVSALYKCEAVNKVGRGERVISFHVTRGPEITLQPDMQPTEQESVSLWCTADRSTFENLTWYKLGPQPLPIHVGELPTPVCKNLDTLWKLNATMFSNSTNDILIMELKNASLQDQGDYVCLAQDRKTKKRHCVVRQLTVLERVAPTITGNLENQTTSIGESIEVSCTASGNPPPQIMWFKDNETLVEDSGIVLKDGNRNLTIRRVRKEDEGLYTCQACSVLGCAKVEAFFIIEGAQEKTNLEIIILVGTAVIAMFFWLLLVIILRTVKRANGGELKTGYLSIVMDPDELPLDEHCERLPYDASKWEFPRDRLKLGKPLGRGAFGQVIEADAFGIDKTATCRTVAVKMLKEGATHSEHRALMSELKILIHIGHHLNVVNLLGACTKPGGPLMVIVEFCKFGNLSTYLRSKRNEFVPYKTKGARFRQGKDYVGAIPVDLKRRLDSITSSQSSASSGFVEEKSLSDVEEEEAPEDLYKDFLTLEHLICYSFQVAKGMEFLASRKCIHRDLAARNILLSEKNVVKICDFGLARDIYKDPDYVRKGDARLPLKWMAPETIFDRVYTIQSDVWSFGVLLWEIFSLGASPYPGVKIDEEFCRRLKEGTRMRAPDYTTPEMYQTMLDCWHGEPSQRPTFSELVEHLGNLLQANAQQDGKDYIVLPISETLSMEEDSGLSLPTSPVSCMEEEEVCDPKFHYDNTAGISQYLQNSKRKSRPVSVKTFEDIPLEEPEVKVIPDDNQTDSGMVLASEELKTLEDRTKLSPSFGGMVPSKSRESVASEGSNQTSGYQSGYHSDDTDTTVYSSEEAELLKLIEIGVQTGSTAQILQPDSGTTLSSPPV

Read-out in experiment [2]: Vascular endothelial growth factor receptor 2 (Homo sapiens) (UniProt P35968)
As to the kind of experiment: BSK_4H_VEGFRII: BioMAP Diversity Plus: 4H Assay for Vascular endothelial growth factor receptor 2 (VEGFR2) Biomarker Activity (AID 2283031).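 As to AC50: cell-surface VEGFR2 protein level quantified by ELISA.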 Particulars: actives raise or lower the signal; primary human endothelial cells (HUVEC). The method in brief: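 HUVEC (human primary), 4H system; 24 h post-dose; VEGFRII by ELISA; bidirectional curve fit vs DMSO baseline; gain or loss of signal scored.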

Read-out in experiment [3]: Human Leukocyte Antigen - DR isotype (HLADR), HLA-DRA (gene 3122)
Kind of experiment: BSK_BE3C_HLADR: BioMAP Diversity Plus: BE3C Assay for Human Leukocyte Antigen - DR isotype (HLADR) Biomarker Activity (AID 2283032). Particulars: actives raise or lower the signal; primary human bronchial epithelial cells. In outline: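 Human primary bronchial epithelial cells (BE3C system) exposed to compound for 24 hours; cell-surface HLA-DR measured by ELISA, fitted bidirectionally relative to DMSO. Total protein by SRB in parallel cultures tracked cytotoxicity.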

Read-out in experiment [4]: Vascular cell adhesion molecule 1 (VCAM1), VCAM1 (gene 7412)
Kind of experiment: BSK_4H_VCAM1: BioMAP Diversity Plus: 4H Assay for Vascular cell adhesion molecule 1 (VCAM1) Biomarker Activity (AID 2283033). Conditions: actives raise or lower the signal; primary human endothelial cells (HUVEC). In outline:
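Primary human umbilical vein endothelial cells, 4H stimulation system, treated for 24 h; cell-surface VCAM-1 quantified by ELISA. Bidirectional fitting against DMSO; cytotoxicity tracked by SRB total-protein staining in parallel cultures.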

Read-out in experiment [5]: Monokine induced gamma interferon (MIG), CXCL9 (gene 4283)
As to the kind of experiment: BSK_BE3C_MIG: BioMAP Diversity Plus: BE3C Assay for Monokine induced gamma interferon (MIG) Biomarker Activity (AID 2283035). Particulars: actives raise or lower the signal; primary human bronchial epithelial cells. The method in brief: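 MIG level was determined by ELISA after 24 h chemical treatment of primary human bronchial epithelial cells. Values were fitted bidirectionally with DMSO as the negative control and activity baseline.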

Read-out in experiment [6]: Transforming growth factor beta 1 (TGFb1), TGFB1 (gene 7040)
Kind of experiment: BSK_BE3C_TGFb1: BioMAP Diversity Plus: BE3C Assay for Transforming growth factor beta 1 (TGFb1) Biomarker Activity (AID 2283036). Conditions: actives raise or lower the signal; primary human bronchial epithelial cells. In outline: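 Primary human bronchial epithelial cells dosed with chemical; TGF-b1 measured by ELISA 24 h after dosing. Bidirectional curve fitting against DMSO negative control; SRB total-protein staining in parallel cultures gauged cytotoxicity.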

Read-out in experiment [7]: Plasminogen activator inhibitor-1 (PAI1), SERPINE1 (gene 5054)
As to the kind of experiment: BSK_BE3C_PAI1: BioMAP Diversity Plus: BE3C Assay for Plasminogen activator inhibitor-1 (PAI1) Biomarker Activity (AID 2283037). Conditions: actives raise or lower the signal; primary human bronchial epithelial cells. The method in brief: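 Primary human bronchial epithelial cells (BE3C system) exposed 24 h; PAI-1 quantified by ELISA. Parallel sulforhodamine B staining of total protein flags cytotoxicity. Bidirectional fit versus DMSO.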

Read-out in experiment [8]: urokinase plasminogen activator (uPA), PLAU (gene 5328)
As to the kind of experiment: BSK_BE3C_uPA: BioMAP Diversity Plus: BE3C Assay for urokinase plasminogen activator (uPA) Biomarker Activity (AID 2283038).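 As to outcome: uPA protein level quantified by ELISA in cell cultures; uPA read one day after compound addition.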 Conditions: actives raise or lower the signal; primary human bronchial epithelial cells. The method in brief:
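ELISA read-out of uPA in human lung primary bronchial epithelial cultures, 24 h post-dosing. Gain or loss of signal fitted bidirectionally relative to DMSO baseline; cytotoxicity checked in parallel cultures via SRB total protein stain.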

Read-out in experiment [9]: Urokinase-type plasminogen activator receptor (uPAR), PLAUR (gene 5329)
Kind of experiment: BSK_BE3C_uPAR: BioMAP Diversity Plus: BE3C Assay for Urokinase-type plasminogen activator receptor (uPAR) Biomarker Activity (AID 2283039).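 As to outcome: uPAR protein level measured by ELISA on the cells; cells exposed to compound for one day before measurement.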 Particulars: actives raise or lower the signal; primary human bronchial epithelial cells. In outline:
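Primary human bronchial epithelial cells dosed for 24 h; uPAR quantified by ELISA with bidirectional fitting against DMSO. Overt cytotoxicity assessed in parallel cultures by SRB total-protein staining (0.1% SRB, 560 nm).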

Read-out in experiment [10]: Interferon-gamma inducible Protein 10 (IP10), CXCL10 (gene 3627)
As to the kind of experiment: BSK_BE3C_IP10: BioMAP Diversity Plus: BE3C Assay for Interferon-gamma inducible Protein 10 (IP10) Biomarker Activity (AID 2283034). Particulars: actives raise or lower the signal; primary human bronchial epithelial cells. The method in brief: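 Primary human bronchial epithelial cells, with IP-10 measured by ELISA 24 hours after chemical dosing. Bidirectional fit against DMSO; cytotoxicity checked by SRB total protein staining in parallel cultures.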

Consider six compounds from PubChem BioAssay (EPA / NIEHS).

Several values for one entry are separate records, joined by “and”; a condition that tells them apart may be missing. Equal entries are not always repeated. Only a part is listed here, and it is no random draw. More than one record can exist for a structure, and the calls need not agree. Activity calls are given as the source filed them. The calls were made as follows: active = hit-call score of the fitted dose curve at least 0.9, where 1 is the maximum; inactive = score below 0.9.

What is called AC50 is the midpoint of the concentration-response curve, whichever way the signal moves. As for `Cc1cc([N+](=O)[O-])cc([N+](=O)[O-])c1O`, the concentration at half-maximal activity (AC50) was active: 20 µM in experiment [1]; active: 5.19 µM in experiment [3]; active: 17.5 µM in experiment [4]; active: 3.97 µM in experiment [6]; active: 9.01 µM in experiment [7]; active: 14.2 µM in experiment [8]. In addition, the half-maximal activity concentration (AC50) in [9] was active: 8.41 µM. For the same compound, the result in [2] and in experiment [5] was inactive.
Regarding `O=C1C2CC=CCC2C(=O)N1SC(Cl)(Cl)C(Cl)Cl` (configuration not stated), the AC50 in experiment [1] was active: 16.9 µM; in [2], active: 14.4 µM; in experiment [7], active: 5.04 µM; in [8], active: 4.97 µM. Besides, the outcome in experiment [5] and in experiment [9] was inactive.
For the compound `O=C(Cl)Oc1ccccc1`, the result in experiment [1], in [2], in experiment [3], in experiment [4], in experiment [10] and in [5] was inactive. The result in experiment [6], in experiment [7], in experiment [8] and in [9] was inactive.
Take `CN(C(=O)Cc1cccc2occc12)[C@H]1CC[C@@]2(CCCO2)C[C@@H]1N1CCCC1`: the result in experiment [1], in experiment [2], in [3], in [4], in [10] and in experiment [5] was inactive. Also, the result in experiment [6], in [7], in experiment [8] and in [9] was inactive.
As to `CC(C)OP(=S)(OC(C)C)SCCNS(=O)(=O)c1ccccc1`, the concentration at half-maximal activity (AC50) is active: 30.5 µM and active: 36.4 µM and active: 30.7 µM in experiment [1]; active: 32.3 µM and active: 34.2 µM in [4]; active: 33.4 µM and active: 27.7 µM and active: 28.1 µM in [10]; active: 5.04 µM in experiment [6]; active: 15.2 µM and active: 27.4 µM in experiment [7]; active: 18 µM in experiment [8]. In addition, the outcome in experiment [4], in experiment [5], in experiment [6], in experiment [7], in experiment [8] and in [9] was inactive.
For `O=[N+]([O-])c1ccc([N+](=O)[O-])cc1`, the outcome in experiment [1], in experiment [2], in experiment [3], in experiment [4], in experiment [10] and in [5] was inactive. The outcome in [6], in [7], in experiment [8] and in [9] was inactive.
